The text below walks through data of EP0629400B1, “Idebenone compositions for treating Alzheimer's disease” (TAKEDA CHEMICAL INDUSTRIES, LTD., priority 1993, dated 1994).

The structures appear in SMILES notation. A value given as a limit tells only on which side of the number the result lay.

One data set has as its system rats. As to conditions: rat, in vivo.
The next data set can be described thus: in vivo. As to conditions: rat, LD50 as an index of acute toxicity.

Regarding `COC1=C(OC)C(=O)C(CCCCCCCCCCO)=C(C)C1=O` [idebenone, 6-(10-hydroxydecyl)-2,3-dimethoxy-5-methyl-1,4-benzoquinone], in the data set on rats, the “LD50 as an index of acute toxicity” value is reported as “about 10,000 mg/kg”. The 50% lethal dose (LD50) (commonly the dose at which mortality reaches 50%) in the data set “in vivo” was > 10000 mg/kg.
